According to PMC7689490, “Designed CXCR4 mimic acts as a soluble chemokine receptor that blocks atherogenic inflammation by agonist-specific targeting” (Nature Communications, 2020):

Each substance was assayed against TAMRA-msR4M-L1 (N-terminally 5(6)-carboxytetramethylrhodamine-labelled msR4M-L1) (human) (UniProt P61073) (assay: MST; TAMRA-msR4M-L1 at 100 nM with MIF or CXCL12 in serial dilution; 20 mM sodium phosphate, pH 7.2, Tween-20; 37 °C; MST-on time 1.5 s; apparent KD).

| Substance | Kd [µM] |
| --- | --- |
| CXC-motif chemokine ligand 12 (CXCL12), recombinant (from UniProt P48061-2 22-89) | > 3.12 |

These substances were tested against Fluos-msR4M-L1ox (fluorescein-labelled, disulfide-bridged msR4M-L1) (human) (UniProt P61073) (assay: other fluorescence titration; Fluos-labelled CXCR4 ectodomain peptide at 5 nM titrated with unlabelled MIF, MIF(10xAla), CXCL12 or MIF peptide fragments; 10 mM sodium phosphate, pH 7.4, 1% HFIP; emission at 522 nm; apparent KD, 1/1 binding model).

| Substance | Kd [µM] |
| --- | --- |
| CXC-motif chemokine ligand 12 (CXCL12), recombinant (from UniProt P48061-2 22-89) | 0.0846 |

Each substance was assayed against Fluos-msR4M-L2ox (fluorescein-labelled, disulfide-bridged msR4M-L2) (human) (UniProt P61073) in the same assay as above.

| Substance | Kd [µM] |
| --- | --- |
| CXC-motif chemokine ligand 12 (CXCL12), recombinant (from UniProt P48061-2 22-89) | 0.0548 |

Each substance was assayed against MIF-specific human CXCR4 mimic-ECL1[97–110]-6-Ahx-12-Ado-ECL2[182–196] (msR4M-L1) (human) (UniProt P61073) (assay: other fluorescence titration; self-assembly: Fluos-labeled peptide titrated with the same peptide unlabeled; 10 mM sodium phosphate, pH 7.4, 1% HFIP; emission at 522 nm; apparent KD).

| Substance | Kd |
| --- | --- |
| MIF-specific human CXCR4 mimic-ECL1[97–110]-6-Ahx-12-Ado-ECL2[182–196] (msR4M-L1) (from UniProt P61073 97-110; P61073 182-196) (designed binder) | 0.197 µM and 0.103 µM and 0.126 µM |

The substances below were run against Fluos-msR4M-L1 (human) (assay: other fluorescence titration; as a1, but Fluos-msR4M-L1 at 10 nM (rows with an asterisk in Supplementary Table 2); apparent KD).

| Substance | Kd [µM] |
| --- | --- |
| MIF(51-67) (peptide) | > 20 |
| MIF(60-74) (peptide) | > 20 |

The substances below were run against Fluos-msR4M-L1 (human) (assay: other fluorescence titration; Fluos-labelled ectodomain peptide at 5 nM titrated with unlabelled MIF or MIF peptide; 10 mM sodium phosphate, pH 7.4, 1% HFIP; emission at 522 nm; apparent KD, 1/1 binding model).

| Substance | Kd [µM] |
| --- | --- |
| MIF(2-16) (peptide) | > 20 |
| MIF(13-27) (peptide) | > 20 |
| MIF(18-32) (peptide) | > 20 |
| MIF(23-38) (peptide) | > 20 |
| MIF(28-43) (peptide) | > 20 |
| MIF(38-60) (peptide) | > 20 |
| MIF(38-64) (peptide) | > 20 |
| MIF(50-60) (peptide) | > 5 |
| MIF(69-90) (peptide) | > 20 |
| MIF(76-90) (peptide) | > 20 |
| MIF(81-94) (peptide) | > 20 |
| MIF(82-95) (peptide) | > 10 |
| MIF(86-100) (peptide) | > 20 |
| MIF(91-105) (peptide) | > 10 |
| MIF(101-115) (peptide) | > 20 |

Values joined by “and” are separate entries in the source; they are usually repeats but may differ in a detail not shown here. Identical values can stand only once.
